## AlphaSeq binding of Ab-14 heavy chain variants to a spike HR2 peptide

Binding partner: SARS-CoV-2 spike HR2 peptide, sequence PDVDLGDISGINAS.

The variants keep the light chain, the linker and the frameworks of Ab-14 (scFv order VH, a 15-residue (Gly4Ser)3 linker, VL).
VH: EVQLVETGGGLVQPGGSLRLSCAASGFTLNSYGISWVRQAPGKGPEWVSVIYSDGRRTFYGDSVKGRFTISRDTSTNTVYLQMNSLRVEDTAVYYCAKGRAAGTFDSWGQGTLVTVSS
VL: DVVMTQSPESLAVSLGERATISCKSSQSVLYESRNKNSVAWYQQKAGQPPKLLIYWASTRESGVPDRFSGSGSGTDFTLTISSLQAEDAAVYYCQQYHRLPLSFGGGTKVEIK

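The starting antibody came from a phage panning campaign against this peptide. In library AAYL49, one, two or three CDR residues were substituted; doubles and triples were drawn at random. Affinity was read by AlphaSeq, a pooled yeast mating assay with surface-displayed partners. Binding brings cells together so that they mate, and sequencing counts the barcode pairs among the diploids. Read counts were normalised to the haploid input and turned into Kd by a linear fit to BCL2-family pairs of known affinity, for each replicate. The assay was run in three technical replicates.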

Changes read parent residue, position, new residue, counted from the first residue of the VH shown.
The read-out is the apparent dissociation constant on a log10 scale (nM): the lower, the stronger.
"ND" means that the variant was in the library but no mating with the target was seen in that replicate; the authors take this as a sign of poor binding, and no number exists.
For reference, the parent read 0.65 as the reference entry and 4.11 (one replicate of three) as a member of this library.

| # | changes | log10 Kd (nM) by replicate | empty controls |
|---|---|---|---|
| 1 | G61K+A102C | ND ND ND | 0/9 |
| 2 | T58G+S63L+A102S | ND ND ND | 0/9 |
| 3 | K65L+G99V+T104Q | 6.48 4.30 ND | 5/9 (3.91) |
| 4 | I34R+T58R+S107Y | ND ND ND | 0/9 |
| 5 | L29W+G33R+R100D | ND ND ND | 0/9 |
| 6 | I34M+F59K+R100C | ND 3.75 ND | 1/9 (2.91) |
| 7 | F27H+D54Y+T58S | 4.72 ND 3.89 | 3/9 (3.74) |
| 8 | I51D+F59L+S63Q | ND ND ND | 1/9 (2.75) |
| 9 | G26D+V50D | ND ND 3.38 | 0/9 |
| 10 | Y52M+T58R+G99W | 4.62 3.91 ND | 2/9 (3.53) |
| 11 | L29A+N30W+Y60P | ND ND 3.62 | 1/9 (2.93) |
| 12 | I51V+S63V+A101K | ND ND ND | 0/9 |
| 13 | S35I+F59L+F105D | ND ND ND | 0/9 |
| 14 | F27S+R56V+D62S | ND ND ND | 2/9 (4.13) |
| 15 | D54W+F105W | 3.11 ND ND | 0/9 |
| 16 | R56F+D106F | 0.37 0.54 0.29 | 0/9 |
| 17 | S53F+D54R+D106Y | ND ND ND | 1/9 (3.30) |
| 18 | G55M+G103K+T104H | ND ND ND | 0/9 |
| 19 | S35D+G55F+D62Q | ND ND ND | 0/9 |
| 20 | G33N+D62T+V64D | ND ND ND | 0/9 |
| 21 | N30D+I34H+A102K | ND ND ND | 1/9 (3.54) |
| 22 | Y52D+R56V+F59N | ND ND ND | 0/9 |
| 23 | Y52D+D62A | 5.27 3.72 ND | 3/9 (3.70) |
| 24 | N30D+I34W+D54P | 5.24 5.14 4.98 | 2/9 (3.83) |
| 25 | S31R+D54I+G61N | ND ND ND | 1/9 (3.85) |
| 26 | G55N+S63V+T104L | ND ND ND | 0/9 |
| 27 | A101N+A102T+T104Y | 1.28 1.12 1.24 | 0/9 |
| 28 | Y60L+G61A+D106K | 2.86 3.20 3.16 | 3/9 (4.81) |
| 29 | T28G+I51P+R57K | ND ND ND | 0/9 |
| 30 | G33R+S63D+V64M | ND ND ND | 0/9 |
| 31 | N30R+Y32Q+G55S | ND ND ND | 2/9 (2.64) |
| 32 | Y52C | ND ND ND | 0/9 |
| 33 | L29D+Y52H+D106I | ND ND ND | 0/9 |
| 34 | I51S+T58V+F105W | 2.46 4.18 ND | 1/9 (5.22) |
| 35 | G26A+F27A+G55H | ND ND ND | 0/9 |
| 36 | S31A+I34S+R100G | 4.98 ND 4.60 | 1/9 (3.63) |
| 37 | D54I | ND ND ND | 1/9 (3.73) |
| 38 | G55Q+R100M+F105M | ND ND ND | 0/9 |
| 39 | F27M+G33N+D54T | ND ND ND | 2/9 (3.15) |
| 40 | S35G+T58N+D106K | ND ND ND | 0/9 |
| 41 | T28I+S63E+T104P | ND ND ND | 1/9 (4.00) |
| 42 | D54N+F59C+K65S | ND ND ND | 0/9 |
| 43 | V64Y+K65S+S107D | ND ND ND | 0/9 |
| 44 | V50A+R56K+K65L | ND 3.18 ND | 0/9 |
| 45 | F27T+G33R+I34P | ND ND ND | 0/9 |
| 46 | Y52S+R57L+G61I | ND ND ND | 1/9 (5.26) |
| 47 | G26R+F27D+T58N | 2.27 2.21 2.06 | 2/9 (4.48) |
| 48 | Y60V+K65M+A102S | 4.14 5.48 4.68 | 4/9 (4.41) |
| 49 | F27Y+V50F+Y52R | ND 4.66 ND | 2/9 (3.91) |
| 50 | S35C+A101Q+F105T | ND ND ND | 1/9 (3.67) |
| 51 | V50E+T58K+K65M | ND ND ND | 1/9 (3.49) |

A selection of 5 entries from above:

{"changes": "I51V+S63V+A101K", "log10 Kd (nM) by replicate": "ND ND ND", "empty controls": "0/9"}
{"changes": "S35G+T58N+D106K", "log10 Kd (nM) by replicate": "ND ND ND", "empty controls": "0/9"}
{"changes": "V64Y+K65S+S107D", "log10 Kd (nM) by replicate": "ND ND ND", "empty controls": "0/9"}
{"changes": "F27H+D54Y+T58S", "log10 Kd (nM) by replicate": "4.72 ND 3.89", "empty controls": "3/9 (3.74)"}
{"changes": "D54W+F105W", "log10 Kd (nM) by replicate": "3.11 ND ND", "empty controls": "0/9"}

Three control strains display no target. For library AAYL49, 15% of the pairings with them gave a signal, with a median of 4.06 and one signal in twenty below 2.83, so weak values seen in few replicates may be background. For each scFv, signals with the empty controls are counted beside the result, with their mean in brackets.

Reference: Engelhart et al. 2022, doi:10.1038/s41597-022-01779-4. File: FLAb, binding data.